1 molecule from ChEMBL document CHEMBL1152082, “Topographical requirements for delta opioid ligands: The synthesis and biological properties of a cyclic analogue of deltorphin I” (Bioorg Med Chem Lett, 1992) can be followed below.

The chains behind the UniProt entries cited, without tags or fusion partners.
UniProt P32300, whole entry: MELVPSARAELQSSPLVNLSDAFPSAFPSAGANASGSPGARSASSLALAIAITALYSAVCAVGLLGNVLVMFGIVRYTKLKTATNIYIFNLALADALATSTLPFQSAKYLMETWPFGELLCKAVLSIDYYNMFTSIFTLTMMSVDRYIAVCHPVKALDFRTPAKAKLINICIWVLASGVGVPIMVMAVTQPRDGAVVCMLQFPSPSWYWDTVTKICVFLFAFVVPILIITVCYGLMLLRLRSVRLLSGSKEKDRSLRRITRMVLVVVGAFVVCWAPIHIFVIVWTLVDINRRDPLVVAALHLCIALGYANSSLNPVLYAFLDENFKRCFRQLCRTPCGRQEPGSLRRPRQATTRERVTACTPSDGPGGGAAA

The assay deals with Delta-type opioid receptor (Mus musculus, UniProt P32300). Description: Inhibitory activity against Mouse vas deferens smooth muscle. The class given is functional, tissue-based, Muscle tissue.

pIC50: −log10 of the molar value.

Take `CC(NC(=O)[C@@H](N)Cc1ccc(O)cc1)C(=O)N[C@@H](Cc1ccccc1)C(=O)N[C@@H](CC(=O)O)C(=O)N[C@H](C(=O)N[C@H](C(=O)NCC(N)=O)C(C)C)C(C)C` (single isomer, unassigned) [DELTORPHIN C]: the pIC50 (commonly −log10 of the IC50, conventionally taken in molar units) is 9.96.
